{"source": "patent US6635631B2", "about": "“Iron compounds, compositions, methods of making the same and uses thereof” (Vitra Pharmaceuticals, Ltd., priority 1995, dated 2003)", "origin": "cited, not measured here", "details": "given on an empty stomach; cited from earlier work"}
{"smiles": "O=S(=O)([O-])[O-].[Fe+2]", "note": "[ferrous sulphate, reference compound]", "values": [{"measurement": "absorption rate", "result": "~30", "unit": "%"}]}
